The target of data set [1] is P2X purinoceptor 7 (Homo sapiens, UniProt Q99572). The data set is described as follows: Antagonist activity at human P2X7 receptor expressed in 1321N1 cells assessed as inhibition of Bz-ATP-induced Ca2+ flux after 30 mins by FLIPR assay. In kind it is cell-based. For orientation: A change in cytosolic calcium serves as a functional read-out for many receptors and channels.

By UniProt entry, the sequences of proteins in these tests, tags left out. Where a name states a change or a piece, a line headed by the entry shows the natural chain unless it says otherwise.
UniProt Q99572: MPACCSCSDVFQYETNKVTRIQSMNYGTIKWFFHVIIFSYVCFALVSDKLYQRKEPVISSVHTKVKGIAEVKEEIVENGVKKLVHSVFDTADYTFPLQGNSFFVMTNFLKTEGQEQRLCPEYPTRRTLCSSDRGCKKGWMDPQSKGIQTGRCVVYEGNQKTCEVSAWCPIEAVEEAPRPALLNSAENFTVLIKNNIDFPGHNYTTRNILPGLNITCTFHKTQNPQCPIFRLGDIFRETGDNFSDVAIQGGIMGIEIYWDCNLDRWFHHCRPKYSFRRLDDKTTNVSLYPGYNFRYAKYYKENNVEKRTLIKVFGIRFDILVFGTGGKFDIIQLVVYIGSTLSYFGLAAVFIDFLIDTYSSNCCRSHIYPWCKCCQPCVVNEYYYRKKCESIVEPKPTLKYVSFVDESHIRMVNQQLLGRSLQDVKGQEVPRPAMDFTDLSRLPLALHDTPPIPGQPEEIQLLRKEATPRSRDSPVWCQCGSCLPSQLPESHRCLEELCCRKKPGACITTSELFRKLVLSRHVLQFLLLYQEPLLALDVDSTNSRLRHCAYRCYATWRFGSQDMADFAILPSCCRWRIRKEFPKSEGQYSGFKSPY

The target in data set [2] is T1, P2X purinoceptor 7 (Rattus norvegicus, UniProt Q64663).
T1 sequence (Q64663 whole entry): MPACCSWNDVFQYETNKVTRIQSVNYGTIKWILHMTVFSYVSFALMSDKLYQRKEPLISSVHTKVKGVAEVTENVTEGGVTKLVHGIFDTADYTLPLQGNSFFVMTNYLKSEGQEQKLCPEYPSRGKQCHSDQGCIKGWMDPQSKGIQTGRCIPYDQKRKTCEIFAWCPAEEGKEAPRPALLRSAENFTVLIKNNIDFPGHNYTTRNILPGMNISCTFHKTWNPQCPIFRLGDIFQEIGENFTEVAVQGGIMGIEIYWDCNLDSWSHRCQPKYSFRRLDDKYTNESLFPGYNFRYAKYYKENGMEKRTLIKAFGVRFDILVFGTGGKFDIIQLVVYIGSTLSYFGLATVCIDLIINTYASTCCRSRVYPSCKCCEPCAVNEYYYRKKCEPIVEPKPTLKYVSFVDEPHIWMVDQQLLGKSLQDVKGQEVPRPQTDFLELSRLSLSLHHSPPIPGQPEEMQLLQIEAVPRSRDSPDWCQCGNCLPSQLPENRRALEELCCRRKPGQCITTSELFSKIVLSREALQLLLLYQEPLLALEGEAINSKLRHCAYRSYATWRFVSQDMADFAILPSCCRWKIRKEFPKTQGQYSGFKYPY
Put plainly: Antagonist activity at rat P2X7 receptor expressed in 1321N1 cells assessed as inhibition of Bz-ATP-induced Ca2+ flux after 30 mins by FLIPR assay. The data set is classed as cell-based.

The nature of data set [3]: Selectivity ratio of IC50 for rat P2X7 receptor to IC50 for human P2X7 receptor.
Data set [4] can be described thus: Efflux ratio of apparent permeability from basolateral to apical side over apical to basolateral side in human Caco2 cells. The data set is classed as ADME, cell-based. The following applies: Caco-2. Background: Caco-2 cells form a polarised layer with tight junctions and transporters.
The nature of data set [5]: Extraction ratio in rat liver microsomes at 1 uM. In kind it is ADME. The following applies: read-out: ERH. A general note: Liver microsomes are a subcellular fraction often used to study metabolism.
Data set [6] in a line: Extraction ratio in human liver microsomes at 1 uM. The data set is classed as ADME. The settings on record: read-out: ERH.

On to `Cc1c(CN2C(=O)c3nnc(-c4cnccn4)n3C[C@@H]2C)cccc1C(F)(F)F`, for which the 50% inhibitory concentration (IC50) – broadly, the concentration that gives 50% inhibition – in data set [1] turned out to be 3.4 nM; in data set [2], 506 nM.
The matching figures for `C[C@H]1Cn2c(nnc2-c2cc[nH]n2)C(=O)N1Cc1cccc(C(F)(F)F)c1Cl`: 0.6 nM and 7.1 nM.
Take `C[C@H]1Cn2c(nnc2-c2cnccn2)C(=O)N1Cc1cccc(C(F)(F)F)c1Cl`: the Ratio IC50 in data set [3] amounted to 100. Moreover, the efflux ratio (in general, the permeability from basolateral to apical divided by that in the opposite direction, in the common usage) in data set [4] was found to be 1.1. For the same compound, the hepatic extraction ratio at 1 µM in data set [5] and in data set [6] was 0.4 each time. In data set [2], the half-inhibitory concentration (IC50) was found to be 79 nM.
In the case of `C[C@H]1Cn2c(nnc2-c2cnccn2)C(=O)N1Cc1c(Cl)cccc1Cl`, the IC50 in data set [1] was determined as 72 nM.
Turning to `C[C@H]1Cn2c(nnc2-c2cncc(Cl)c2)C(=O)N1Cc1cccc(C(F)(F)F)c1Cl`, the IC50 in data set [1] stood at 4.3 nM.
Same read-out and setting: the value for `C[C@H]1Cn2c(nnc2-c2cnccn2)C(=O)N1Cc1ccccc1Cl` was 216 nM; that for `C[C@H]1Cn2c(nnc2-c2ncccn2)C(=O)N1Cc1cccc(C(F)(F)F)c1Cl` was 0.5 nM.
With `CC(c1cccc(C(F)(F)F)c1Cl)N1C(=O)c2nnc(-c3cnccn3)n2C[C@@H]1C` (mixture of isomers), the half-maximal inhibitory concentration (IC50) turned out to be 65 nM in data set [1] and 2690 nM in data set [2].
For the compound `C[C@H]1Cn2c(nnc2-c2ccncn2)C(=O)N1Cc1cccc(C(F)(F)F)c1Cl`, the IC50 in data set [1] is 3.8 nM; in data set [2] it was more than 10000 nM.
Consider `C[C@@H]1Cn2c(nnc2-c2cnccn2)C(=O)N1Cc1cccc(C(F)(F)F)c1Cl`, for which the IC50 in data set [1] amounted to 4710 nM.
Same read-out and setting: the value for `C[C@H]1Cn2c(nnc2-c2cnccn2)C(=O)N1Cc1ccccc1` was 6960 nM.
The same measure, in the same setting: the figure for `C[C@H]1Cn2c(nnc2-c2ccc(F)cc2)C(=O)N1Cc1cccc(C(F)(F)F)c1Cl` is 0.2 nM.
For `C[C@H]1Cn2c(nnc2-c2ccc(F)cn2)C(=O)N1Cc1cccc(C(F)(F)F)c1Cl`, the IC50 in data set [2] is 380 nM.
On to `CC1Cn2c(nnc2-c2cnccn2)C(=O)N1Cc1cccc(C(F)(F)F)c1Cl` (stereo not drawn), for which the figures for the IC50 in data set [1] and in data set [2] were 3.4 nM and 36 nM, respectively.

Values taken from ChEMBL document CHEMBL3745703 (Bioorg Med Chem Lett, 2016).
